# AlphaSeq binding of Ab-91 heavy chain variants to a spike HR2 peptide

Antigen: PDVDLGDISGINAS, a 14-residue peptide of the SARS-CoV-2 spike HR2 region.

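The library (AAYL51) carries one to three amino acid substitutions per variant, with no insertions or deletions. AlphaSeq pools MATa yeast showing the antibodies with MATalpha yeast showing the peptide. The frequency of each diploid, read from paired DNA barcodes, reflects how well the two displayed proteins bind. Read counts were normalised to the haploid input and turned into Kd by a linear fit to BCL2-family pairs of known affinity, for each replicate. Mating was done three times.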

The variants keep the light chain, the linker and the frameworks of Ab-91 (scFv order VL, three GGGGS repeats, VH).
VL: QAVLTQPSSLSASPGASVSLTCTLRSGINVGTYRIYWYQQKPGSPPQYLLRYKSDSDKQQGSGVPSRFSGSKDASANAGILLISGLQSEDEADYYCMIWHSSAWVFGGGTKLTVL
VH: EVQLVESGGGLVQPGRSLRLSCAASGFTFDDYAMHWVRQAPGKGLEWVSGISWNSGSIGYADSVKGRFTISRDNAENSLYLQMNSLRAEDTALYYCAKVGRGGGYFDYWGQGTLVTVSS

Positions count from residue 1 of the parent VH; G26H puts H in place of G.
Every variant below is changed at K65 of the VH (sequential numbering).
Each Kd is an estimate from the mating assay, the geometric mean of the replicates in which the pair was seen; lower is stronger.
"nd" marks a missing value. The strain was present, yet no cells mated with the target were sequenced in any replicate, which points to weak or no binding.
Entries are sorted by rising average, undetected variants last.
In this assay the parent's reference entry averaged 72 nM; its copy inside this library read 7.5 nM.
Nonspecific signal, from three strains lacking the peptide, appeared in 21% of pairings of library AAYL51, centred on 34 µM (5% of these signals below 1.8 µM); values are not corrected for it. For each scFv, signals with the empty controls are counted beside the result.

The variant G26H F27V K65R showed 4.5 nM (3 of 3 replicates; controls 6 of 9).
The variant K65C R101T showed 4.9 nM (3 of 3 replicates; controls 6 of 9).
The variant W53Q K65E showed 410 nM (3 of 3 replicates; controls 2 of 9).
The variant G56E D62A K65Y showed 3.2 µM (2 of 3 replicates; controls 0 of 9).
The variant F27E K65R R101A showed 3.4 µM (1 of 3 replicates; controls 2 of 9).
The variant G26H G50M K65A showed 11 µM (1 of 3 replicates; controls 1 of 9).
The variant I51F K65N G100Y showed 24 µM (3 of 3 replicates; controls 5 of 9).
The variant W53T K65V V99S showed 59 µM (2 of 3 replicates; controls 3 of 9).
The variant G50Q S52Y K65D showed 120 µM (3 of 3 replicates; controls 3 of 9).
The variant A61N K65M R101L showed 150 µM (3 of 3 replicates; controls 4 of 9).
The variant G56T K65R F106S showed 200 µM (2 of 3 replicates; controls 8 of 9).
The variant F27A K65A G100T showed 210 µM (3 of 3 replicates; controls 4 of 9).
The variant F29S K65N G104I showed 270 µM (1 of 3 replicates; controls 5 of 9).
The variant K65L V99C Y105W showed 340 µM (3 of 3 replicates; controls 7 of 9).
The variant S52M N54F K65P showed 360 µM (3 of 3 replicates; controls 5 of 9).
The variant G59N K65G D107W showed nd (0 of 3 replicates; controls 0 of 9).
The variant K65S D107P showed nd (0 of 3 replicates; controls 2 of 9).
The variant G26M H35C K65I showed nd (0 of 3 replicates; controls 2 of 9).
The variant D30Y K65N showed nd (0 of 3 replicates; controls 1 of 9).
The variant F27L M34P K65M showed nd (0 of 3 replicates; controls 2 of 9).
The variant A61F K65S D107L showed nd (0 of 3 replicates; controls 0 of 9).
The variant G26V K65Y showed nd (0 of 3 replicates; controls 0 of 9).
The variant A61F K65I showed nd (0 of 3 replicates; controls 3 of 9).
The variant D31V H35L K65L showed nd (0 of 3 replicates; controls 0 of 9).
The variant F29S G50H K65P showed nd (0 of 3 replicates; controls 0 of 9).
The variant G59T D62L K65F showed nd (0 of 3 replicates; controls 1 of 9).

The 3 strongest on average among those seen in every replicate, once more:

The variant G26H F27V K65R gave 4.5 nM (3 of 3 replicates; controls 6 of 9).
The variant K65C R101T gave 4.9 nM (3 of 3 replicates; controls 6 of 9).
The variant W53Q K65E gave 410 nM (3 of 3 replicates; controls 2 of 9).

From the AlphaSeq antibody data of Engelhart et al. 2022 (doi:10.1038/s41597-022-01779-4), copy in the FLAb collection.